The source of these data is patent publication US7074789B2, “Kinase inhibitors” (Amgen Inc., priority 1999, dated 2006).

Amino acid sequences for entries named in this document (tags omitted). Residues count along the entry.
UniProt P43403, whole entry: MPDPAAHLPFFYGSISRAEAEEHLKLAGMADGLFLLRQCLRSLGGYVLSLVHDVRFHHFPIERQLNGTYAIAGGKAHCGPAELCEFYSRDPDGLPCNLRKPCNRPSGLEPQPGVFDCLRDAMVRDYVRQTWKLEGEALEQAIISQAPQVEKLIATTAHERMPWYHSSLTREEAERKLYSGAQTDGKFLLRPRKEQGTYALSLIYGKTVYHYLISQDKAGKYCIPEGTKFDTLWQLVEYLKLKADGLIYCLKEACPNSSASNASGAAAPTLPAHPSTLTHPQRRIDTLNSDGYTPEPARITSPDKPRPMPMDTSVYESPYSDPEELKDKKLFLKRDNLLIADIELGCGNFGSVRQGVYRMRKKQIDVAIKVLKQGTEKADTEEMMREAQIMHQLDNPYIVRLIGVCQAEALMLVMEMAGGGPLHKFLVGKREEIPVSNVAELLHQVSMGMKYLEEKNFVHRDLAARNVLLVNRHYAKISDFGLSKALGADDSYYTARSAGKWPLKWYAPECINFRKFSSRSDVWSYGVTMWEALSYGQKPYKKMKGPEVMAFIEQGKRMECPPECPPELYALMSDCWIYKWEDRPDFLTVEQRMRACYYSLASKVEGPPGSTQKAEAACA
UniProt P35968, 20-1356 limits assumed: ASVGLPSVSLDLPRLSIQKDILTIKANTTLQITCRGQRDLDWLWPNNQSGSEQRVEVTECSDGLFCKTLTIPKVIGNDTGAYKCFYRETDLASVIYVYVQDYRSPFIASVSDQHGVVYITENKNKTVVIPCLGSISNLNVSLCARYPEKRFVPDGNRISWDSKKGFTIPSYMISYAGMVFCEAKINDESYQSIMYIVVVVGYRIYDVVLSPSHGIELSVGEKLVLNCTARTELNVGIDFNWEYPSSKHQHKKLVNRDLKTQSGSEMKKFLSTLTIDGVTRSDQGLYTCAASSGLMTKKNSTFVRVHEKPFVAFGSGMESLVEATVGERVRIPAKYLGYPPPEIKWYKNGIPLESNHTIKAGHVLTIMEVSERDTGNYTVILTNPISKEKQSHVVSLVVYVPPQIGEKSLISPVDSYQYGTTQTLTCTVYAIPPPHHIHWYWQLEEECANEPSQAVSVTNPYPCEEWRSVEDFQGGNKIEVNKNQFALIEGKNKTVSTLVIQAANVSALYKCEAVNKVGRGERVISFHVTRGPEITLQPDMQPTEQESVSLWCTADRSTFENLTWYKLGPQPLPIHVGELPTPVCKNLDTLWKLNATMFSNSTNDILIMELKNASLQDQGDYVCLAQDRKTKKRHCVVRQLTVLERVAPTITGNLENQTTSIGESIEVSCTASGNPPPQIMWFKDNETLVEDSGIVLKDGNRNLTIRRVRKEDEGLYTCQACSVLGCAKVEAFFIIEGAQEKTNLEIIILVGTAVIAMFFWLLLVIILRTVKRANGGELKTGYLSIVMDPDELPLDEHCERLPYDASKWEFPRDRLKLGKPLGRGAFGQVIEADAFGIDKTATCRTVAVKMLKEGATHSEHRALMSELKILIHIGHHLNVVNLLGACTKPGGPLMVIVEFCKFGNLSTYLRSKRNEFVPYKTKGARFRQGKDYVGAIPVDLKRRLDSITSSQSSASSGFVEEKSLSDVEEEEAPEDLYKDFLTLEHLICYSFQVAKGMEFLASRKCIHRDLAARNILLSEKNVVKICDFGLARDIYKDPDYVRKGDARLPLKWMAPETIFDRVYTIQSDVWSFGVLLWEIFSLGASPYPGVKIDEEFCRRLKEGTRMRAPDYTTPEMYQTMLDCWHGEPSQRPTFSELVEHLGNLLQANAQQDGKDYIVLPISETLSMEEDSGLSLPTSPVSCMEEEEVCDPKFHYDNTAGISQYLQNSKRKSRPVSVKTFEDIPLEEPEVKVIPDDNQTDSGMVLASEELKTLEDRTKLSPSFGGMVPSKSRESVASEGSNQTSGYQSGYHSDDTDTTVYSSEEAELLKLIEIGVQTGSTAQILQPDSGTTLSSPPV
UniProt P00533, 25-1210 limits assumed: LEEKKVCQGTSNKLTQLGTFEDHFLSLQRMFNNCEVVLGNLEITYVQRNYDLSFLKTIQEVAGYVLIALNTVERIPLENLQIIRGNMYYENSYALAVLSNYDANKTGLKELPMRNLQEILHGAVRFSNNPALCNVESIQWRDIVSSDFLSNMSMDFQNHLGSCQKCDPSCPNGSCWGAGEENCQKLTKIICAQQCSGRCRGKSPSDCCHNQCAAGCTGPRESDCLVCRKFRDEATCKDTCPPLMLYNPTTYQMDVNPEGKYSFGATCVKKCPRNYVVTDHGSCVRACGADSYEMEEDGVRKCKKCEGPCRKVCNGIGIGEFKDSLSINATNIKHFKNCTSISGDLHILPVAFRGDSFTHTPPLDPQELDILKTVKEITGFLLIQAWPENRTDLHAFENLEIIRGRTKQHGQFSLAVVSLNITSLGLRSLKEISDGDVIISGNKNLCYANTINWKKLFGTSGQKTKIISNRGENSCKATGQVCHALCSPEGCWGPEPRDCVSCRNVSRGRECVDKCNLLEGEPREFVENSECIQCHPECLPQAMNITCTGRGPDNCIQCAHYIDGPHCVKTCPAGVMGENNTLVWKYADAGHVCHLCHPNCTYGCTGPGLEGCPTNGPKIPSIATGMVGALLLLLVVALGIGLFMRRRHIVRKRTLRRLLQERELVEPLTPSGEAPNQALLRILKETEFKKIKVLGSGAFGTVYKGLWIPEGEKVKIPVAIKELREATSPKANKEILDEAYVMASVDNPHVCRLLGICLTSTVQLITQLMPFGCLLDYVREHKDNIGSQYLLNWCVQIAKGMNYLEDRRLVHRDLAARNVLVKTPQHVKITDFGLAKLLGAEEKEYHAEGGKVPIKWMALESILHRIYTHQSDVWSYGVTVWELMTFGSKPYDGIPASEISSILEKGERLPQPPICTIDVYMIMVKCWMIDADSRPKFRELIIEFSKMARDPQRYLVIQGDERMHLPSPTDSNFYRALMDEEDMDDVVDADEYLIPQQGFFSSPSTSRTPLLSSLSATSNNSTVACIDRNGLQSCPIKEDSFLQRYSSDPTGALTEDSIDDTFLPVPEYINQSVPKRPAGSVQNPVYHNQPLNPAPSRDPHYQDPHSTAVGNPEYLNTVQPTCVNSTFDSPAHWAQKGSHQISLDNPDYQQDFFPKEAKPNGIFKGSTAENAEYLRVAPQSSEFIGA
UniProt P06239, whole entry: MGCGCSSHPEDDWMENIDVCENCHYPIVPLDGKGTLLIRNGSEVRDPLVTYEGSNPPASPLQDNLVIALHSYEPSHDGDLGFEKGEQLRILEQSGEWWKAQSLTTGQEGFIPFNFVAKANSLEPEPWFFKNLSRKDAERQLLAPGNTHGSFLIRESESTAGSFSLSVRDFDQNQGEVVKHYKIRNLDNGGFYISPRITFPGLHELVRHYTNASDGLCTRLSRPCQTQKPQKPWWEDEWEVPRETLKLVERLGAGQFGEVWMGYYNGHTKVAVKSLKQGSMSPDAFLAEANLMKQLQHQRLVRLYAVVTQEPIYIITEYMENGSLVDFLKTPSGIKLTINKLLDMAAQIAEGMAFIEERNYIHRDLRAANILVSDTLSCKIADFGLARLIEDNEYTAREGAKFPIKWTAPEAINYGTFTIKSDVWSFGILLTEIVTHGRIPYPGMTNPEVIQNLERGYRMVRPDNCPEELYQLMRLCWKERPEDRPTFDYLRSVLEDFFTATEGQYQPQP
UniProt Q9Y243, whole entry: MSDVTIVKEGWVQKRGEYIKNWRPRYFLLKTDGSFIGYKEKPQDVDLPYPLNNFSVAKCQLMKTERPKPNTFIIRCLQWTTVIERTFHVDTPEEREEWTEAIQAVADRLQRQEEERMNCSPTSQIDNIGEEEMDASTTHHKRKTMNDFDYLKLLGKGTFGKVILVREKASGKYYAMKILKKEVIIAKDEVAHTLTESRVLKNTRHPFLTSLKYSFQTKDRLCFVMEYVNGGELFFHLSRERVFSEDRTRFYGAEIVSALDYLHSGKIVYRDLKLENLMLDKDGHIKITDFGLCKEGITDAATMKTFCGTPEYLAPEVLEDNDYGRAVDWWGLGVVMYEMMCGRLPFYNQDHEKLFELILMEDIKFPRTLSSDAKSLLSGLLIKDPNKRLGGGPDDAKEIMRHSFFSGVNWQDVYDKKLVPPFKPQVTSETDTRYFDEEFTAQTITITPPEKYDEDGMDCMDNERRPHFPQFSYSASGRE
UniProt Q08881, whole entry: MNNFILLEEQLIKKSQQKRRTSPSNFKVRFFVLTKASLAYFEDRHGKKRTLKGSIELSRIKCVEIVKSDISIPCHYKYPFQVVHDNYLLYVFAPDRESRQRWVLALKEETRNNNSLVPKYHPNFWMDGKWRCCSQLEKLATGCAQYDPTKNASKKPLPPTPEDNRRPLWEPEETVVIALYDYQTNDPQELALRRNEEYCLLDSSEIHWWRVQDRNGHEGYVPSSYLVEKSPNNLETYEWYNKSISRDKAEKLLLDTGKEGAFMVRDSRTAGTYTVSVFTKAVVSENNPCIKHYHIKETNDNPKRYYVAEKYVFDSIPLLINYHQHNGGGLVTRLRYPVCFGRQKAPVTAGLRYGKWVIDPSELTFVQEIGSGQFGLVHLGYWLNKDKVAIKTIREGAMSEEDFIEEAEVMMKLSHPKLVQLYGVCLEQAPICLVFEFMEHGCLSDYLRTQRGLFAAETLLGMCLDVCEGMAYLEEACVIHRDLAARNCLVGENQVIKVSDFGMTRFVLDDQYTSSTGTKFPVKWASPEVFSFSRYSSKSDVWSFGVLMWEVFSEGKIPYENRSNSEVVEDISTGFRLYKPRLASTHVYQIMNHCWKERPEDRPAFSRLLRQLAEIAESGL
UniProt P08581, 25-1390 limits assumed: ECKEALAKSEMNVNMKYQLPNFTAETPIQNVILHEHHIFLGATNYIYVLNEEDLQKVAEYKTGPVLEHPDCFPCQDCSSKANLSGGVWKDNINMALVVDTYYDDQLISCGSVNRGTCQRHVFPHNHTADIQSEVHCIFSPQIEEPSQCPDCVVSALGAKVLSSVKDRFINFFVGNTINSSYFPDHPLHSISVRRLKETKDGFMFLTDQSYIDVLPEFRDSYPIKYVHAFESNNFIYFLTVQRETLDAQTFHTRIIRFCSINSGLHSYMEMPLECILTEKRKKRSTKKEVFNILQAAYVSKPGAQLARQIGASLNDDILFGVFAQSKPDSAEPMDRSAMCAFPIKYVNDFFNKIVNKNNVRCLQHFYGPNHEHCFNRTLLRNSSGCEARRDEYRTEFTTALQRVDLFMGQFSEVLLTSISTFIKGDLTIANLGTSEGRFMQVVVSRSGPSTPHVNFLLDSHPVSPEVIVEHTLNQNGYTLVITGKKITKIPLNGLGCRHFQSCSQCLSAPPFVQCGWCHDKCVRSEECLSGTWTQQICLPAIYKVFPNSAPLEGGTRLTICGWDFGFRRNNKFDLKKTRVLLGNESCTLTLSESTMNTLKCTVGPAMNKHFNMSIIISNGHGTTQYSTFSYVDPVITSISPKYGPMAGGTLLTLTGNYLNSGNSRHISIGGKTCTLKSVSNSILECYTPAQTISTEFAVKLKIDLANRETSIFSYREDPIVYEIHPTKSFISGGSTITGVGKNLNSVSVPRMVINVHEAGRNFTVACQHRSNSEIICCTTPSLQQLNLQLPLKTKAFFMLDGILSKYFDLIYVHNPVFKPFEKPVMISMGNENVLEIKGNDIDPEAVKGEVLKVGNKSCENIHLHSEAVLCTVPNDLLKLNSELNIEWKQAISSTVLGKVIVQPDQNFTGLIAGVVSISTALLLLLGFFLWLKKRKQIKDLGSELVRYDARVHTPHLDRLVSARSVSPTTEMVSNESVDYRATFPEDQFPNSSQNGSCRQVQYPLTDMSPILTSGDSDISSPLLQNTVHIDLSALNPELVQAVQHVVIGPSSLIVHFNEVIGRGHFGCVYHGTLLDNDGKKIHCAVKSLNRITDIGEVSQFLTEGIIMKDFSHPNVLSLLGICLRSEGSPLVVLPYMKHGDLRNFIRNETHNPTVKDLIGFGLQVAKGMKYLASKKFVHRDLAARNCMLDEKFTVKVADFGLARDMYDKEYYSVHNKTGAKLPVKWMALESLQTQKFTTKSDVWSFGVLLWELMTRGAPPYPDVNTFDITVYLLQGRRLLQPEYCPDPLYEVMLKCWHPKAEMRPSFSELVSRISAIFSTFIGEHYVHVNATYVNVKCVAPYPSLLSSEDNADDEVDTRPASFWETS

For one assay, the target named is Zap-70 (Homo sapiens, UniProt P43403). Kind of assay: Kinase inhibition assay (33P transfer), Zap-70. Format: biochemical. Conditions: Table 3.
The target in another assay is Kdr (Homo sapiens, UniProt P35968). Kind of assay: Kinase inhibition assay (33P transfer), Kdr. Format: biochemical. Conditions: Table 3.
A further assay deals with EGFR (Homo sapiens, UniProt P00533). Nature of the assay: Kinase inhibition assay (33P transfer), EGFR. Format: biochemical. Conditions: Table 2, kinase inhibition class.
The next assay concerns the target Lck (Homo sapiens, UniProt P06239). Kind of assay: Kinase inhibition assay (33P transfer), Lck. Format: biochemical. Conditions: Table 3.
Another assay addresses AKT (Homo sapiens, UniProt Q9Y243). Nature of the assay: Kinase inhibition assay (33P transfer), AKT. Conditions: Table 2, kinase inhibition class.
The next assay deals with Itk (Homo sapiens, UniProt Q08881). Nature of the assay: Kinase inhibition assay (33P transfer), Itk. Format: biochemical. Particulars: Table 3.
A further assay concerns the target c-Met (Homo sapiens, UniProt P08581). Kind of assay: Kinase inhibition assay (33P transfer), c-Met. Conditions: Table 2, kinase inhibition class. Format: biochemical.

The structures appear in SMILES notation.

On to `O=c1[nH]c2ccccc2n1-c1ncnc(Nc2cccc(NS(=O)(=O)c3ccc([N+](=O)[O-])cc3)c2)n1`, for which, on Zap-70, the Zap-1 entry is listed as “E (E>4.5 ug/mL)”. Further, the KDR-1 entry on Kdr is “B (B>0.4 and <2.4 ug/mL)”. For the same compound, the EGFR-1 entry on EGFR is “B (B>0.4 and <2.4 ug/mL)”. Further, on Lck, the Lck-1 entry was “E (E>4.5 ug/mL)”. Also, the AKT3-1 result on AKT is “C (C>2.4 and <3.5 ug/mL)”. For the same compound, the Itk-1 entry on Itk is “E (E>4.5 ug/mL)”. For the same compound, at c-Met, the Met-1 entry is “C (C>2.4 and <3.5 ug/mL)”.
